The term IC50 denotes the concentration needed to halve the response being measured. Low values mean greater potency in that assay, high ones weaker potency in that assay.

Protein sequences, listed by entry. Tags and fused reporters are not part of them. Lines headed by an entry give the natural chain unless they say otherwise; changes in a name come on top.
UniProt P9WMC1: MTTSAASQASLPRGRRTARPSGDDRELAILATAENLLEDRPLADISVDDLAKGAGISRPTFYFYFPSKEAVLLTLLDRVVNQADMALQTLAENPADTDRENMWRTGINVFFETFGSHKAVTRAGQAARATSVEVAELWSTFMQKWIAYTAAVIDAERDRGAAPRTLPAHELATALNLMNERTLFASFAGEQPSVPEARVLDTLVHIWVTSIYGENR

Data on four compounds can be found in US8962658B2, “Fluoralkylcarbonyl-oxadiazoles” (Universite de Droit et de la Sante de Lille 2, priority 2011, dated 2015).

This assay concerns the target EthR binding to its DNA operator (ethA promoter region) (Mycobacterium tuberculosis, UniProt P9WMC1). The note with it: concentration of ligand that inhibits 50% of the interaction of EthR with its promoter; SPR.

`O=C(CCC(F)(F)F)N1CC[C@@H](c2nc(-c3cccs3)no2)C1` [Compound 2] registered an IC50 of 2000 nM. That is a single-digit micromolar value. `COc1ccc2nc(-c3noc(C4CCN(C(=O)CCC(F)(F)F)CC4)n3)sc2c1` [Compound 7, 4,4,4-Trifluoro-1-{4-[3-(6-methoxy-benzothiazol-2-yl)-1,2,4-oxadiazol-5-yl]-piperidin-1-yl}-butan-1-one] had an IC50 of 1000 nM. The value for `O=C(CCC(F)(F)F)N1CCC(c2nc(-c3cccs3)no2)CC1` [Compound 3, 4-4-4-trifluoro-1-[4-(3-thiophen-2-yl-[1,2,4]oxadiazol-5-yl)-piperidin-1-yl]butan-1-one, reference compound] was 1600 nM; that for `O=C(CCC(F)(F)F)N1CCC(c2nc(-c3ccccc3)no2)CC1` [Compound 8, 4,4,4-Trifluoro-1-[4-(3-phenyl-1,2,4-oxadiazol-5-yl)-piperidin-1-yl]-butan-1-one] was 9100 nM.
